Measurements published in PubChem BioAssay (Tox21).
This is a selection; strong and weak results do not stand in their true shares. Inconclusive results are not listed. Where a call stands in place of a potency, no number is given. The source made the active and inactive calls. Calls come from the whole dose curve.

Amino acid sequences for entries named in this document (tags omitted).
UniProt P22303, whole entry: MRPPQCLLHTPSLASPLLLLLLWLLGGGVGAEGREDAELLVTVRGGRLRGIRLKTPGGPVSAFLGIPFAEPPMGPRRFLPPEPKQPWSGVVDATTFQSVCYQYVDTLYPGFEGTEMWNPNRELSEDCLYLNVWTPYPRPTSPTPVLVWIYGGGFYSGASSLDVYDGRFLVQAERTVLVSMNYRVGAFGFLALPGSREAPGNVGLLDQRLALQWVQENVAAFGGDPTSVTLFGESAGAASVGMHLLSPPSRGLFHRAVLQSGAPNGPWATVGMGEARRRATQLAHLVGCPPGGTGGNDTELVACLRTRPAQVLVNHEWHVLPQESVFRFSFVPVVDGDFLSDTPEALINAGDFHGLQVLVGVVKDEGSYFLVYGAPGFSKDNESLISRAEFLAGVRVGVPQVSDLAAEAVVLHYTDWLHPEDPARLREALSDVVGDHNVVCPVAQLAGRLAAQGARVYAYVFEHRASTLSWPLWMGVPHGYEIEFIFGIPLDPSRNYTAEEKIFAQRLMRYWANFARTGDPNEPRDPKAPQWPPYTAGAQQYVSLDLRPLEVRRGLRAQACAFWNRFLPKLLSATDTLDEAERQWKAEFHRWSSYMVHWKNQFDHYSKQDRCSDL

target: Acetylcholinesterase (Homo sapiens) (UniProt P22303); experiment: Acetylcholinesterase (AChE) small molecule antagonists: fluorescence cell-based qHTS assay (AID 1347398); conditions: SH-SY5Y cells; Potency: AChE activity; series mostly up to 115 µM; note: nearly all actives have a fitted effect of over 50% in size
Text: National Center for Advancing Translational Sciences [NCATS]
Division of Preclinical Innovation [DPI]
U.S. Environmental Protection Agency [EPA]
National Institutes of Environmental Health Sciences [NIEHS]
National Toxicology Program [NTP]
U.S. Food and Drug Administration [FDA]
Acetylcholinesterase (AChE) is the primary cholinesterase in the body that hydrolyzes a key neurotransmitter, acetylcholine. Inhibition of AChE activity can lead to neurotoxicity. Known inhibitors of AChE include organophosphorous pesticides (OP), chemical warfare agents, drugs, and various phytochemicals.
A homogenous cell-based assay using Amplitetrade mark Fluorimetric Acetylcholinesterase Assay Kit *Green Fluorescence* (AAT Bioquest, Sunnyvale, CA) was used to evaluate the chemicals in the Tox21 10K library that inhibit AChE activity. The assay uses Thiolite Green to quantify the thiocholine produced from the hydrolysis of acetylthiocholine by AChE from the SH-SY5Y cells. AChE can hydrolyze acetylthiocholine to create thiocholine. Thiolite Green is fluorescent when reacting with thiocholine. It has spectral properties similar to those of fluorescein. The fluorescence intensity of Thiolite Green is used to measure AChE activity. Its signal can be easily read by a fluorescence microplate reader at Ex/Em = 490/520 nm.
Tox21 Assay Protocol Summary:
For cell-based AChE assay, 2,000 SH-SY5Y cells in 4 uL/well were dispensed into black, clear-bottom 1536-well plates using a Multidrop Combi (Thermo Scientific) dispenser. The assay plates were incubated overnight at 37 C to allow cells to attach to the wells, followed by the transfer of 23 nL compound or DMSO (vehicle control) by a Pintool station (Wako Automation, CA). The plates were incubated for 30 min at 37 C and 5% CO2, followed by the addition of 4 uL of detection cocktail solution (ThioliteGreen, acetylthiocholine) into each well using Flying Reagent Dispenser (Beckman Coulter, CA) and then following 40 min incubation at room temperature. Fluorescent intensity (Ex/Em = 490/520 nm) was measured using an Envision plate reader (PerkinElmer, MA).
Potency is the fitted concentration of half-maximal effect.

Row | SMILES | Potency
1 | Cc1cccc([N+](=O)[O-])c1[N+](=O)[O-] | inactive
2 | Cc1ccc([N+](=O)[O-])c([N+](=O)[O-])c1 | inactive
3 | C/C1=C2N=C(/C=C3N=C(/C(C)=C4\[N-][C@@](C)([C@@H]5N=C1[C@](C)(CCC(=O)NC[C@@H](C)OP(=O)([O-])O[C@H]1[C@@H](O)[C@@H](n6cnc7cc(C)c(C)cc76)O[C@@H]1CO)[C@H]5CC(N)=O)[C@@](C)(CC(N)=O)[C@@H]4CCC(N)=O)[C@@](C)(CC(N)=O)[C@@H]\3CCC(N)=O)C(C)(C)[C@@H]/2CCC(N)=O.[C-]#N.[Co+3] | inactive
4 | Nc1cc([N+](=O)[O-])cc([N+](=O)[O-])c1O | inactive
5 | COP(C)(=O)OC | inactive
6 | Cc1c([N+](=O)[O-])cccc1[N+](=O)[O-] | inactive
7 | CCOP(=O)(CC)OCC | inactive
8 | O=[N+]([O-])OCC(CO[N+](=O)[O-])(CO[N+](=O)[O-])CO[N+](=O)[O-] | inactive
9 | CCOC(=O)N1CCC(=O)CC1 | inactive
10 | CN(C)CCCl | inactive
11 | OCCSCCO | inactive
12 | CCC(=O)N(c1ccccc1)C1CCNCC1 | inactive
13 | CC(C)N(CCO)C(C)C | inactive
14 | ClCCNCCCl | inactive
15 | N#CBr | inactive
16 | CP(=O)(O)OCCC[Si](O)(O)O | inactive
17 | CCN(CC)CCCl | inactive
18 | N=C(N)N[N+](=O)[O-] | inactive
19 | Cc1ccc([N+](=O)[O-])cc1[N+](=O)[O-] | active: 31.3 µM
20 | CC(C)OP(OC(C)C)OC(C)C | inactive
21 | [NH4+].[O-][Cl+3]([O-])([O-])[O-] | inactive
22 | O=[N+]([O-])[O-].[NH4+] | inactive
23 | ClCCOP(OCCCl)OCCCl | inactive
24 | CCOP(=O)(Cl)Cl | inactive
